Source: PubChem (National Center for Advancing Translational Sciences (NCATS))
Shown are actives, neighbours in structure and some others; about 3.7% of the full set was active somewhere.
Nrf2 block: blocks Nrf2 signaling; 360,000 tested, 2.1% active; Potency, µM (titrated, usually from 46 µM), without a hit: top-dose activity change, negative = inhibition, actives largely listed as inhibitors; AID 504444; A549 ARE-Fluc reporter, luciferase luminescence, 18-24 h; also: potency is read from the fitted curve at half-maximal effect; % is scaled to controls: 0 for no effect and ±100 for the full control effect; nearly all actives have a fitted effect of over 60% in size
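In this cell-based qHTS, ARE-driven firefly luciferase in A549 cells reports Nrf2 activity; the luminescent signal after BugLite lysis is the measured value, with a prior CellTiter-Fluor read for cell health.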
ClpP mod: qHTS Assay for Activators of ClpP; AID 651965, 2013; 340,000 tested, 1.9% active; Potency, µM (doses to about 57.5 µM), without a hit: top-dose activity change, negative = active; purified B. subtilis ClpP, FRET peptide cleavage, 20 min; active = well fitted falling curve with a large enough effect; inconclusive = small, poorly fitted or top-dose-only effect; inactive = no such curve, though single readings can be large or run the other way; also: potency is read from the fitted curve at half-maximal effect; the source files actives as falling curves though it sought activators and does not explain the sign; nearly all actives have a fitted effect of over 65% in size
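Purified B. subtilis ClpP, 10 microg/mL final in Tris/HCl pH8 with KCl, BSA, glycerol and Tween-20, cleaved an Abz/nitrotyrosine-quenched decapeptide. Fluorescence (ex 320, em 430) was read at 0 and 20 min at room temperature. Delta was normalized to 5.8 microM ADEP and DMSO/no-enzyme controls.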
miR-21 reporter: miR-21 reporter, rising signal; HeLa miR-21 FLuc reporter, luciferase, 48 h; Potency, µM (doses to about 38.3 µM), for inactives: at the highest dose reporter change, positive = more light; 340,000 tested, under 10 active; AID 2288; active = well fitted rising curve with a large enough effect; inconclusive = small, poorly fitted or top-dose-only effect; inactive = no such curve, though single readings can be large or run the other way;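 further: % of control where 0% means no effect; miR-21 action dims this reporter so a rising signal means less miR-21 action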
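HeLa cells stably expressing CMV-driven firefly luciferase with a downstream miR-21 binding sequence, endogenously expressing miR-21, were treated with titrations (up to about 40uM final) for 48 hours at 37 degree Celsius. Luciferase luminescence was read after lysis.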
p53 reactivator: restores transcriptional activity of mutant p53 | H1299 p53-A138V BP100-luciferase reporter, luminescence, 24 h | 320,000 tested, 0.063% active | Potency, µM (doses to about 92.2 µM), for inactives: at the highest dose activity change, positive = activation, usual class: activators | AID 504706; also: potency is read from the fitted curve at half-maximal effect; % of control where 0% means no effect; nearly all actives have a fitted effect of over 45% in size
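H1299 (p53-null), stable ts p53-A138V + BP100-Luc; 1000 cells/well, Opti-MEM/10% FBS; cpd 4 pt, 1:5; 24 h, 37 deg C, 5% CO2; detection reagent 10 min RT; luminescence.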
A549 tox: A549 cytotoxicity, counter-screen for Nrf2 inhibitors; AID 504648; A549 ARE-Fluc cells, CellTiter-Fluor viability, 18-24 h; Potency, µM (top dose mostly 46 µM), without a hit: at the highest dose activity change, negative = cytotoxicity, usual class: inhibitors; 390,000 tested, 0.16% active; also: potency is read from the fitted curve at half-maximal effect; % is scaled to controls: 0 for no effect and ±100 for the full control effect
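Cytotoxicity counterscreen: CellTiter-Fluor fluorescence was measured in A549 ARE_Fluc cells after 18-24 h of compound exposure in a concentration series. The subsequent BugLite luminescent read reports ARE-luciferase activity.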
Nrf2 activator: activates Nrf2 signaling | AREc32 ARE-luciferase reporter (MCF7-derived line), luminescence, 24 h | Potency, µM (top dose mostly 46.1 µM), inactives show top-dose activation, actives largely listed as activators | 410,000 tested, 0.31% active | AID 624171; also: potency is read from the fitted curve at half-maximal effect; % of control where 0% means no effect; nearly all actives have a fitted effect of over 65% in size
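Nrf2 activation is followed as ARE-luciferase induction in the AREc32 line after one day of compound treatment; luminescence is read with Steady-Glo.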
* = called active by the depositor; ? = inconclusive; / = no result given; [ ] = another dose, or the depositor's remark. Unless noted, calls follow the shape of the dose curve; as a rule, active = well fitted curve in the direction sought with a large enough effect; inconclusive = small, poorly fitted or top-dose-only effect, or another doubt; inactive = no such curve, though single readings can be large; an effect the other way counts as inactive or inconclusive.

Sequence of screens: Nrf2 block | ClpP mod | miR-21 reporter | p53 reactivator | A549 tox | Nrf2 activator
#1 OC(c1cccc(OCc2ccccc2)c1)c1nnc(-c2ccccc2)o1 (stereo not given)
  ? | 1.5% | 3.6% | 0.3% | -5.7% | 0.6%
#2 OC(c1ccc(OCc2ccccc2)cc1)c1nnc(-c2ccccc2)o1 (stereo not given)
  16.4µM* | 14.1µM* | -0.7% | 10.6% | -18.4% | -0.1%
#3 CC(=O)N1CCN(c2ccc(NS(=O)(=O)c3ccc4c(c3)CC(=O)N4)cc2)CC1
  21.5%[92.2 µM] | / | / | / | -0.3%[92.2 µM] | /
#4 COc1ccc(CNC(=O)[C@H](C)N2C(=O)N3CCc4c([nH]c5ccccc45)[C@@]3(C)C2=O)cc1OC
  16.4µM* | 1.8% | 14.3% | / | -2.3% | 0.6%
#5 CCOC(=O)CSc1nc2c(c(-c3ccc(C)o3)c1C#N)CCCC2
  0.5% | 28.2µM* | 11.1% | 2.7% | / | -0.3%
#6 COC(=O)CSc1nc2c(c(-c3ccco3)c1C#N)CCCC2
  12.7% | -13.0% | -5.4% | 13.5% | -5.6% | 21.8%
#7 CC1=C(C#N)C(c2cn(-c3ccccc3)nc2-c2cccs2)C(C#N)=C(C)N1
  ? | 35.5µM* | 0.5% | -7.0% | 6.7% | 0.1%
#8 COCCOC(=O)C1=C(C)NC(=O)NC1c1cn(-c2ccccc2)nc1-c1cccs1 (stereo not given)
  4.5% | -6.0% | -10.3% | -22.5% | -5.0% | 4.0%
#9 Nc1cc(N)cc(N)c1
  / | -5.9% | / | / | / | /
#10 Cc1cccc2nc(-c3ccccc3)nc(N3CCC(O)(c4ccc(Cl)cc4)CC3)c12
  -19.3% | 14.1µM* | 15.6% | 12.4% | 3.2% | 3.6%
#11 O=[N+]([O-])c1ccc(O)c(-c2nn[nH]n2)c1
  ? | 25.1µM* | -37.5% | ? | -6.6% | 2.7%
#12 CCn1c2ccccc2c2c3ncc4cccn4c3ccc21
  ? | / | ? | 28.2µM* | 13.4% | 12.6µM*
#13 Cc1ccc(-n2ncc(C(=O)N3CCN(c4cc(Cl)ccc4C)CC3)c2C2CCN(C(=O)OC(C)(C)C)CC2)cc1
  4.8% | 0.7% | -1.5% | / | 5.6% | 0.3%
#14 CC(C)S(=O)(=O)c1csc(NC(=O)Nc2cc(Cl)ccc2Cl)c1Cl
  18.4µM* | 0.2% | -1.4% | -3.5% | -18.8% | -1.0%
#15 O=c1[nH]nc(SCCS(=O)(=O)c2ccc(F)cc2)n1-c1ccc2c(c1)OCCO2
  13.8% | / | 21.3% | ? | -12.0% | 12.6µM*
#16 O=c1[nH]nc(SCCS(=O)(=O)c2ccc(F)cc2)n1-c1ccccc1
  -27.3% | -0.3% | 20.6% | -11.3% | -6.5% | 12.6µM*
#17 COc1cccc(NC(=O)Nc2nc(-c3ccc(OC)c(OC)c3)cs2)c1
  7.31µM* | -0.6% | ? | -15.6% | 16.4µM* | -1.9%
#18 COc1ccc(-c2csc(NC(=S)NC(=O)c3ccc4ccccc4c3)n2)cc1OC
  9.2µM* | -0.6% | -5.9% | -1.1% | -14.3% | -1.2%
#19 COc1ccccc1C(=O)Nc1nc(-c2ccc3c(c2)OCCO3)cs1
  23.1µM* | 25.1µM* | -9.2% | -2.1% | -3.8% | 4.8%
#20 COc1ccc(-c2csc(NC(C)=O)n2)cc1OC
  11.3% | -0.4% | -27.8% | 2.5% | -3.1% | 2.6%
#21 CC(C)Nc1cccc(S(=O)(=O)N2CCCN(S(=O)(=O)c3ccc4c(c3)OCCO4)CC2)c1
  ? | / | / | / | -2.8% | /
#22 Cc1ccc(C(=O)c2oc3ccccc3c2NC(=O)c2cc(=O)c3ccccc3o2)cc1
  2.6% | -2.0% | -3.0% | / | 3.9% | 0.4%
#23 CS(=O)(=O)N(CC(=O)Nc1ccc(CC#N)cc1)c1ccc(C23CC4CC(CC(C4)C2)C3)cc1
  14.6µM* | -0.3% | 14.7% | -1.4% | ? | 3.6%
#24 CCOc1ccc(S(=O)(=O)c2cn(Cc3ccc(C)cc3)c3ccc(OC)cc3c2=O)cc1
  12.4% | 3.4% | -3.8% | / | 1.9% | 2.5%
#25 Cc1ccc(-n2cc(CNCCCn3ccnc3C)c(-c3ccc(F)cc3)n2)cc1
  -16.4% | -0.2% | -4.0% | -1.8% | 25.9µM* | 3.8%
#26 CSC1(SC2=NCCN2)SC2(NCCN2)S1
  8.2µM* | -22.5% | / | / | 7.31µM* | 23.9%
#27 COc1ccc(C(=O)CN2C(=O)N(c3ccc(C(C)=O)cc3)S(=O)(=O)c3ccccc32)cc1
  / | -1.1% | 11.0% | / | -2.2% | -0.3%
#28 CCSc1nnc(NC(=O)C2CCN(S(=O)(=O)c3ccccc3C(F)(F)F)CC2)s1
  23.1µM* | -1.3% | 7.9% | -0.6% | -1.8% | -0.3%
#29 CCSc1nnc(NC(=O)C2CCN(S(=O)(=O)c3c(C)c(C)cc(C)c3C)CC2)s1
  / | / | -0.3% | 2.8% | / | /
#30 O=C(O)c1ccc(COc2ccccc2/C=C2\NC(=O)N(Cc3ccccc3)C2=O)cc1
  -17.6% | / | -16.1% | -7.0% | -4.4% | 0.0%

As entered above:
Under ClpP mod, #26 is entered as -22.5%
Under p53 reactivator, #14 is entered as -3.5%
Under A549 tox, #21 is entered as -2.8%
Under miR-21 reporter, #10 is entered as 15.6%

(more compounds)
Sequence of screens: Nrf2 block | ClpP mod | miR-21 reporter | p53 reactivator | A549 tox | Nrf2 activator
#31 O=C(O)c1ccc(COc2ccc3ccccc3c2/C=C2/NC(=O)N(Cc3ccc(F)cc3)C2=O)cc1
  20.6µM* | / | 0.9% | 7.2% | -27.1% | 5.1%
#32 COCc1cc(C)nc(Nc2ccccc2OC)c1C#N
  1.9% | -24.3% | 2.6% | / | ? | 30.0%
#33 COCc1cc(C)nc(NCCc2ccccc2)c1C#N
  / | 3.55µM* | -32.4% | / | 6.1% | 13.1%
#34 O=C1CN(N=Cc2ccco2)C(=O)N1
  18.5% | / | / | / | 5.2% | 0.6%
#35 CC1(C(=O)NS(=O)(=O)c2ccc(Cl)s2)CCN1C(=O)Cc1ccc(Cl)cc1Cl (stereo not given)
  / | -0.1% | / | / | / | 0.3%[9.22 µM]
#36 Cc1ccc(S(=O)(=O)CC(=O)c2ccc(C(C)(C)C)cc2)cc1
  -8.1% | 28.2µM* | -13.3% | 12.5% | -10.0% | 0.4%
#37 Cc1ccc(Cl)cc1NC(=O)COC(=O)CCN1C(=O)C2CC=CCC2C1=O (stereo not given)
  -0.6% | 25.1µM* | / | 4.3% | 4.8% | 0.2%
#38 Cc1ccccc1Cn1c2ccccc2c2cnn(CC(=O)NC(C)CCc3ccccc3)c(=O)c21 (stereo not given)
  -7.6% | -26.3% | -0.6% | / | 0.7% | -0.6%
#39 CCN(C(=O)COC(=O)c1ccc2c(c1)OCO2)c1ccc(F)cc1
  -5.8% | 28.2µM* | / | -2.3% | 10.0% | 0.0%
#40 CN(C(=O)COC(=O)c1ccc2c(c1)OCO2)C1CCCCC1
  16.4% | / | / | 29.1% | 1.1% | -0.8%
#41 Cc1cc(=O)n2nc(-c3ccccc3)sc2c1C#N
  15.7% | -7.8% | -5.9% | 3.5% | -11.4% | 2.24µM*
#42 COC(=O)c1c(C#N)c(N)nc2c1CCCC2
  -5.0% | 28.2µM* | -2.8% | -14.3% | -0.7% | -0.3%
#43 COc1cc(-c2c(C#N)c(N)nc3c2CCCC3)ccc1O
  -14.0% | -5.8% | -3.3% | -0.9% | 0.8% | 2.7%
#44 COc1cccc(NC(=O)c2c(C(=O)Nc3ccccc3)sc3nc(C)cc(=O)n23)c1
  23.6% | 2.1% | -2.1% | / | -10.2% | 0.0%
#45 NC(=O)C1=C(N=C2CCCCC2)CCCC1
  3.9% | 31.6µM* | / | / | -10.9% | 0.2%

Three structures out of the list, sorted by heavy-atom count, descending:
Sequence of screens: Nrf2 block | ClpP mod | miR-21 reporter | p53 reactivator | A549 tox | Nrf2 activator
#40 CN(C(=O)COC(=O)c1ccc2c(c1)OCO2)C1CCCCC1
  16.4% | / | / | 29.1% | 1.1% | -0.8%
#33 COCc1cc(C)nc(NCCc2ccccc2)c1C#N
  / | 3.55µM* | -32.4% | / | 6.1% | 13.1%
#42 COC(=O)c1c(C#N)c(N)nc2c1CCCC2
  -5.0% | 28.2µM* | -2.8% | -14.3% | -0.7% | -0.3%
